Data on one molecule can be found in article PMC3873281, “Discovery and Preclinical Characterization of Novel Small Molecule TRK and ROS1 Tyrosine Kinase Inhibitors for the Treatment of Cancer and Inflammation” (PLoS ONE, 2013).

The subject of one assay is A549 cells. Nature of the assay: A549 cell growth. To be noted: lung cancer model that does not express ROS1.
A further assay relates to K-299 cells. Nature of the assay: ALCL cell growth, WST-1. To be noted: ALK (+), NPM-ALK, 3 days.
The next assay deals with SUDHL cells. Description: ALCL cell growth, WST-1. The conditions noted are these: ALK (+), NPM-ALK, 3 days. A general note: Formazan colour is commonly taken as a measure of viable cells.

Molecules are shown by their SMILES.

As to `C[C@@H](Oc1cc(-c2cnn(C3CCNCC3)c2)cnc1N)c1c(Cl)ccc(F)c1Cl` [crizotinib], the “growth of A549 cells” value with A549 cells is “not inhibited”. Moreover, the “growth of K-299 cells” value in the assay on K-299 cells is given as “comparably inhibited”. The “growth of SUDHL cells” value in the assay with SUDHL cells is given as “comparably inhibited”.
